Reference: ChEMBL document CHEMBL3102826 (J Med Chem, 2013)

Target: Dual specificity tyrosine-phosphorylation-regulated kinase 1A (Homo sapiens, UniProt Q13627)
Experiment: Inhibition of DYRK1A (unknown origin)

Question: How did the IC50 turn out when CCN1/C(=C/C(C)=O)Sc2ccc(OC)cc21 was run?
Answer: 930 nM
